According to patent US5821239A (priority 1996, dated 1998):

Target: Brain AChE (acetylcholinesterase, rat striatum) (Rattus norvegicus, UniProt P37136)
Settings: read-out: Inhibitory Concentration Brain AChE; rat striatum homogenate; acetylthiocholine 5 mM final, DTNB 0.25 mM; pH 7.2; 10 min preincubation at 37° C.

SMILES | IC50
CN(C)C(=O)Oc1cnccc1N=CN1CCCCC1 | 47.1 µM
CN(C)C=Nc1ccncc1OC(=O)N(C)C | 83 µM
CN(C)C(=O)Oc1cnccc1N | 13.4 µM
CN(C)C(=O)Oc1cnccc1N=CN1CCCC1 | 9.38 µM
